Yeast mating assay B: variants of the scFv Ab-14

Reference: Li et al. 2023, doi:10.1038/s41467-023-39022-2. File: FLAb, binding data.

Antigen: PDVDLGDISGINAS, a 14-residue peptide of the SARS-CoV-2 spike HR2 region.

Parent: Ab-14, a human scFv built as VH, three GGGGS repeats, VL. Only the CDRs of the heavy chain vary.
VH: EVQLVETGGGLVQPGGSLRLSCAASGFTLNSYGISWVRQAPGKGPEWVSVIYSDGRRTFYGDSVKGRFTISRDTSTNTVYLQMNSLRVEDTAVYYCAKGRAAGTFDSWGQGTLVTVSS
VL: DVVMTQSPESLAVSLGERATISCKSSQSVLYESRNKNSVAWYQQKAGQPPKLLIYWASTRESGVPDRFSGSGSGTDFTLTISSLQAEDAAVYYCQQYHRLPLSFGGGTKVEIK

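The starting antibody came from a phage panning campaign against this peptide. These sequences belong to a second round, designed from the earlier measurements on random variants of the parent. Several design methods are mixed in this list. The assay is AlphaSeq: two haploid yeast populations carry antibody and antigen on their surface. Mating (16 h, 30 °C) was followed by selection of diploids and sequencing of their barcodes. Each replicate has its own calibration line, from reference interactions of the BCL2 family. Mating was done six times.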

Substitutions are numbered in sequence along the VH above, starting at 1 (not Kabat). Variants here have at most six changes. Kd is apparent (estimated from mating counts) and averaged on the log scale over replicates with a signal. Smaller is tighter. "nd" means that the variant was in the library but no mating with the target was seen in any replicate; the authors take this as a sign of poor binding, and no number exists.

With R100Y+A102K the result was nd (0 of 6 replicates; controls 0 of 18).
With T28A+S31E+R100Q+A101T+S107L the result was 3.9 nM (6 of 6 replicates; controls 1 of 18).
With T28G+S31E+G61H+R100H the result was 1.1 nM (6 of 6 replicates; controls 0 of 18).
With T28S+G61S+R100V the result was 5.8 nM (6 of 6 replicates; controls 0 of 18).
With S53F+F105Y the result was nd (0 of 6 replicates; controls 0 of 18).
With L29H+S31D+G99N+G103L+D106I the result was nd (0 of 6 replicates; controls 0 of 18).
With N30D+G61I+R100Q+A101L the result was 54 nM (5 of 6 replicates; controls 0 of 18).
With S31E+D106T the result was nd (0 of 12 replicates; controls 0 of 36).
With T28S+S63Q+R100K+S107R the result was nd (0 of 6 replicates; controls 1 of 18).
With T28D+R100K+T104C+D106N the result was nd (0 of 6 replicates; controls 0 of 18).
With T28D+S63Q+R100Q+A101T+S107C the result was 57 nM (3 of 6 replicates; controls 0 of 18).
With T28D+G61S+R100Q+S107A the result was 500 pM (6 of 6 replicates; controls 0 of 18).
With G61Q+R100K+T104H+S107L the result was nd (0 of 6 replicates; controls 1 of 18).
With T28A+L29I the result was 20 nM (2 of 6 replicates; controls 0 of 18).
With S31E+F59G+G61T+S63C+A101F the result was 110 nM (4 of 6 replicates; controls 0 of 18).
With T28H+S53A+R100E the result was 620 pM (6 of 6 replicates; controls 2 of 18).
With T28D+G61A+S63E+A101T the result was 620 pM (6 of 6 replicates; controls 1 of 18).
With G26L+R100L+A101E+F105Y the result was nd (0 of 6 replicates; controls 0 of 18).
With T28S+S31E+G61S+A101N the result was 320 pM (6 of 6 replicates; controls 1 of 18).
With T28G+S63R+R100Q+A101F+F105K the result was nd (0 of 6 replicates; controls 0 of 18).
With T28D+A101E+T104R+D106R the result was nd (0 of 6 replicates; controls 0 of 18).
With S31E+G61D+S63D+S107Q the result was 6.8 nM (6 of 6 replicates; controls 0 of 18).
With S31E+R57P+G61T+A101I+S107G the result was 220 nM (1 of 6 replicates; controls 0 of 18).
With T28S+G61S+R100N+S107L the result was 410 pM (6 of 6 replicates; controls 0 of 18).
With T28S+R100E+A101V the result was 1.3 nM (6 of 6 replicates; controls 1 of 18).
With T28I+S31E+A101T the result was 4.3 nM (3 of 6 replicates; controls 0 of 18).
With S31D+D106I+S107Q the result was nd (0 of 6 replicates; controls 0 of 18).
With R100K+A101I+S107T the result was 37 nM (5 of 6 replicates; controls 0 of 18).
With T28D+G61Q+S63R+R100N the result was 2.8 nM (3 of 6 replicates; controls 0 of 18).
With G26K+T28S+G61A+R100K+A101T the result was 18 nM (5 of 6 replicates; controls 0 of 18).
With S31E+D62Q+G103V+S107K the result was nd (0 of 6 replicates; controls 0 of 18).

Top 3 of the variants detected in all replicates, tightest first:

For T28S+S31E+G61S+A101N, the assay gave 320 pM (6 of 6 replicates; controls 1 of 18).
For T28S+G61S+R100N+S107L, the assay gave 410 pM (6 of 6 replicates; controls 0 of 18).
For T28D+G61S+R100Q+S107A, the assay gave 500 pM (6 of 6 replicates; controls 0 of 18).

Some sequences occur more than once in the pool; their replicates are pooled. The authors' rule: three or more of the six replicates give a measured affinity, fewer mean a poor binder. The parent sequence was in this pool as ten entries: three were never detected, three once, and four in most replicates, with averages from 2.2 nM to 240 nM. The range of this assay differs from that of the first round, and the authors advise against merging the two. Background: pairings of all heavy chain designs with three empty control strains gave a value in 1% of cases (median 120 nM, 5th percentile 7.0 nM). Values in that range, when seen in few replicates, are hard to tell from nonspecific mating. Also given: how often the same scFv was detected with the empty control strains.